## Apparent affinities of Ab-14 variants for a coronavirus HR2 peptide

Binding partner: SARS-CoV-2 spike HR2 peptide, sequence PDVDLGDISGINAS.

Each scFv is VH, the linker GGGGSGGGGSGGGGS, VL, as in the parent Ab-14, and differs from it in the CDRs of the light chain only.
VH: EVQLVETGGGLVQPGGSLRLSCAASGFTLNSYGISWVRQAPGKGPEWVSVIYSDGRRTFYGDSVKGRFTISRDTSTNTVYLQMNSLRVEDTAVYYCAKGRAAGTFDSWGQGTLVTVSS
VL: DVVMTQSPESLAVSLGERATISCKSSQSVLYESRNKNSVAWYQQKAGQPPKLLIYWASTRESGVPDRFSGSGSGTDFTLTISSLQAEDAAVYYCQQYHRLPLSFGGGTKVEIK

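The starting antibody came from a phage panning campaign against this peptide. These sequences belong to a second round, designed from the earlier measurements on random variants of the parent. Several design methods are mixed in this list. The assay is AlphaSeq: two haploid yeast populations carry antibody and antigen on their surface. The frequency of each diploid, read from paired DNA barcodes, reflects how well the two displayed proteins bind. Scores were corrected for input abundance and mapped to Kd with protein pairs of known affinity run in the same pool. Each pool was mated in six replicate cultures.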

Variants are written as CDR1, CDR2 and CDR3 of the light chain (limits as in the source). Parent: KSSQSVLYESRNKNSVA, WASTRES, QQYHRLPLS.
Scale: log10 of Kd in nM, estimated from mating counts; low values are strong binders.
The mean shown is taken over the replicates in which the pair was detected.
A pair that was not seen in that replicate is written "n.d."; this usually means weak binding, but a binder can also be missed.
The authors averaged sequences with at least three values out of six and counted those with two or fewer as poor binders.
As a blank, each scFv also met three strains without target: over all light chain designs, 4% of these pairings were detected, typically at 2.64 and seldom below 1.59. The control count says in how many pairings with the empty strains this scFv gave a signal, with their mean in brackets.
A sequence measured in both rounds can read differently, since the two assays cover different ranges.
The parent sequence was in this pool as ten entries: three were never detected, three once, and four in most replicates, with averages from 0.34 to 2.37.

CDR-L1,CDR-L2,CDR-L3,"replicates, log10 nM",mean log10 Kd (nM),signal with controls
KSSQSVLYESRNVNSVA,WASTREQ,QQYHRLPLS,n.d. n.d. 1.97 n.d. n.d. n.d.,1.97,0/18
KVSQSNLYESRNANSVA,NASQRCS,QQYHRLPLS,0.03 -0.06 -0.26 -0.33 -0.21 -0.15,-0.16,3/18 (3.15)
NLYQSMNFLQRVMNSIA,DASTIPD,QQYHRLPLS,2.22 n.d. n.d. 3.16 2.86 n.d.,2.75,1/18 (1.99)
KFGQMVLTGMYVSNSVA,QSSTREN,QQYHRLPLS,1.32 0.36 0.99 0.27 1.20 0.87,0.83,0/18
KLPQSVPYESRNKNSVA,DASTRES,QQYHRLPLS,2.94 1.13 1.46 0.76 0.76 0.86,1.32,1/18 (2.88)
KSSQSVLYESKNKNSVA,WASERES,QQYHRLPLS,1.12 1.19 n.d. 2.39 n.d. n.d.,1.57,0/18
KVSQSVLYESRNKNNVA,HASTRES,QQYHRLPLS,0.36 0.86 0.13 0.39 0.15 0.20,0.35,0/18
TISQMTSLFSQSINNVA,EVSMRES,QQYDRLPLA,1.40 1.08 1.38 1.93 1.01 0.95,1.29,1/18 (3.19)
KLSQSVLYESRNPNSVA,NASTREM,QQYHRLPLS,0.04 -0.28 -0.24 -0.20 0.00 0.05,-0.11,1/18 (2.55)
KISQQVLMESRNMNSVA,NASTREE,QQYHRLPLS,0.96 0.59 1.67 1.27 1.34 1.22,1.18,1/18 (2.85)
QIDSFYQHGTDDKQAMA,DVSVRDQ,QQYSRLPLS,0.28 0.24 0.23 0.23 0.40 0.31,0.28,1/18 (3.60)
KSSQSVLYESEFHNSVA,NAVTRES,QQYHRLPTR,n.d. 2.15 n.d. 2.48 n.d. 4.69,3.10,3/18 (2.87)
KVSQSKLYESRQFNSVA,HASQREL,QQYHRLPLS,0.79 0.54 0.52 0.49 0.58 0.65,0.60,1/18 (4.41)
KLSQSVLYESRNKNSVA,EAGTRES,QQYHRLPLS,-0.31 -0.29 -0.34 -0.38 -0.44 -0.13,-0.32,0/18
KMSQSWLMESRNKNSVA,EASTRQS,QQYHRLPLS,-0.22 -0.34 -0.33 -0.28 -0.39 0.02,-0.26,2/18 (2.46)
MLSQMWGIGQKAKNSVA,QASMRFN,QQYDRLPLI,1.40 1.48 1.34 1.44 1.53 1.38,1.43,1/18 (2.45)
KLHQSVDMESRNKNSVA,SASTRED,QQYHRLPLA,-0.19 0.47 0.11 0.45 0.36 0.36,0.26,1/18 (2.43)
RSSQSVMYESRNKNSVA,EASTRES,QQYHRLPLS,0.79 0.49 0.56 0.16 0.32 0.72,0.51,0/18
KVSEFMKGLMMRTDSIA,DNTTRNQ,QQYDRLPLS,2.84 n.d. 2.82 3.84 1.84 2.92,2.85,1/18 (2.94)
KSKQSWLYESRNKNSVA,GASRRES,QQYHRLPLS,0.64 0.53 0.26 0.22 0.62 0.70,0.49,0/18
KVSPEWEYSSRNKASVA,HASTRES,QQYHRLPLS,0.45 0.40 0.21 0.12 0.13 0.55,0.31,0/18

Second part, the sequence after the result:

"replicates, log10 nM",mean log10 Kd (nM),signal with controls,CDR-L1,CDR-L2,CDR-L3
1.03 0.81 n.d. n.d. 2.06 1.34,1.31,1/18 (2.08),MISEMMHMIGARKNSIA,DLVLRAN,QQYHRLPLS
n.d. 1.77 n.d. 2.02 1.13 3.35,2.06,1/18 (2.27),KIGMTLNQLMHQKNNVA,DLVMRES,QQYHRLPLS
-0.04 0.02 -0.34 -0.01 -0.28 0.02,-0.10,2/18 (2.88),MISQLMNMGQFAINSVA,QAEIRNN,QQYDRLPLA
-0.17 -0.28 -0.41 -0.62 -0.55 -0.41,-0.41,0/18,NSSGMGMFEERNKNSVA,HASTREE,QQYERLPLS
0.49 0.35 0.33 0.53 0.48 0.68,0.48,2/18 (2.13),HVSSMLMAGGGIYNNIA,GTKVLER,QQYMRLPLM
n.d. n.d. n.d. n.d. 1.56 n.d.,1.56,0/18,KSSQSVLYESRNKNHVA,WASTRES,DQYHILPLS
0.23 0.09 0.09 0.03 0.12 0.14,0.12,1/18 (3.28),KISQSVLYESSNKNSVA,SASSRES,QQYHRLPLS
1.90 1.86 1.68 1.68 2.45 2.33,1.98,0/18,KVSEFMRGLMSRKNSIA,DNVTRSN,QQYDRLPLS
2.21 1.57 2.27 1.45 2.26 2.70,2.08,0/18,MISQLMNMGTFAINSVA,QASIRNQ,QQYDRLPLI
0.29 0.09 0.12 0.13 0.34 0.28,0.21,0/18,KSSFSYLYESRNTNSVA,EASTRES,QQYHRLPLS
n.d. 1.46 2.21 1.07 1.23 1.50,1.49,0/18,KSMQEDEYQSRNKNSVA,HASLRES,QQYHRLPLS
n.d. n.d. n.d. n.d. n.d. n.d.,n.d.,0/18,KSDQSVLKEWRNKNSVA,WASARVS,QQYHRLPLS
n.d. 1.49 n.d. n.d. n.d. n.d.,1.49,1/18 (1.11),IVSQLMLWGLHAKNSIA,EAVMRLN,QQYDRLPLE
0.36 0.30 0.25 0.41 0.82 1.32,0.58,2/18 (2.30),RVQINSGHSDMHWKSIA,SASIRAD,QQYERLPLE
0.68 0.46 0.11 0.04 0.43 0.58,0.38,1/18 (1.31),NIGMTLNMLEHKQNNVA,DLVEREN,QQYFRLPLS
0.19 1.10 0.05 0.71 0.19 0.66,0.48,1/18 (1.42),KLRGLTHIESFNKNNVA,EMTTRES,QSYDRLPLS
-0.17 -0.62 -0.53 -0.49 -0.52 -0.32,-0.44,0/18,KLSQSELYESRNPNSVA,NASTRMS,QQYHRLPLS
-0.02 -0.14 -0.18 -0.21 -0.16 0.04,-0.11,1/18 (3.14),KLYQSVLYESRMKNSVA,NASTRES,QQYHRLPLS
0.57 0.36 0.27 0.18 0.17 0.48,0.34,3/18 (2.61),KMSMSWPYDSLNKNSVA,NASTRMQ,QQYHRLPLS
1.03 1.03 0.65 0.87 0.87 0.91,0.90,0/18,IISWVDAYESRNKNSIA,DQSTRGS,QQYDRLPLS
1.13 1.10 0.97 0.93 1.09 0.95,1.03,5/18 (2.73),KVSEFMKGLMGRTDSIA,DNTTRGQ,QQYDRLPLS

Extract of 3 entries:

CDR-L1,CDR-L2,CDR-L3,"replicates, log10 nM",mean log10 Kd (nM),signal with controls
KMSMSWPYDSLNKNSVA,NASTRMQ,QQYHRLPLS,0.57 0.36 0.27 0.18 0.17 0.48,0.34,3/18 (2.61)
KLYQSVLYESRMKNSVA,NASTRES,QQYHRLPLS,-0.02 -0.14 -0.18 -0.21 -0.16 0.04,-0.11,1/18 (3.14)
KLRGLTHIESFNKNNVA,EMTTRES,QSYDRLPLS,0.19 1.10 0.05 0.71 0.19 0.66,0.48,1/18 (1.42)

From the AlphaSeq antibody data of Li et al. 2023 (doi:10.1038/s41467-023-39022-2), copy in the FLAb collection.